This assay concerns the target human PDE10A2 (Homo sapiens (Human), UniProt Q9Y233). The assay is described as follows: PDE10A enzyme inhibition, PDE IMAP TR-FRET assay. Conditions: FAM-cAMP substrate. The format is biochemical. The protocol: An IMAP TR-FRET assay was used to analyze the enzyme activity (Molecular Devices Corp., Sunnyvale Calif.). 10 μL of serial diluted PDE10A (BPS Bioscience, San Diego, Calif.) or tissue homogenate was incubated with equal volumes of diluted fluorescein labeled cAMP or cGMP for 90 min in 384-well Polypropylene assay plates (Greiner, Monroe, N.C.) at room temperature. After incubation, the reaction was stopped by adding 55 μL of diluted binding reagents and was incubated for 4 hours to overnight at room temperature. The plates were read on an Envision (Perkin Elmer, Waltham, Mass.) for time resolved fluorescence resonance energy transfer. The data were analyzed with Genedata Screener® (Lexington, Mass.).
To check the inhibition profile, 0.2 μL of serial diluted compounds were incubated with 10 μL of diluted PDE10 enzyme (BPS Bioscience, San Diego, Calif.) or tissue homogenate in a 384-well Polypropylene assay plate (Greiner, Monroe, N.C.) for 60 min at room temperature. […] The reaction was stopped by adding 55 μL of diluted binding reagents and plates were read on an Envision (Perkin Elmer, Waltham, Mass.) for time resolved fluorescence resonance energy transfer. The data were analyzed with Genedata Screener® (Lexington, Mass.). […]
The PDE IMAP assay was conducted in a 384-well black Greiner polypropylene plate (Sigma, St. Louis, Mo.). […] Fluorescence signals were measured at 520 nm and 485 nm. […]
(In general: In TR-FRET formats the signal depends on donor and acceptor labels being close together.)

Amino acid sequences for entries named in this document (tags omitted). Residues count along the entry.
UniProt Q9Y233, 267-1055: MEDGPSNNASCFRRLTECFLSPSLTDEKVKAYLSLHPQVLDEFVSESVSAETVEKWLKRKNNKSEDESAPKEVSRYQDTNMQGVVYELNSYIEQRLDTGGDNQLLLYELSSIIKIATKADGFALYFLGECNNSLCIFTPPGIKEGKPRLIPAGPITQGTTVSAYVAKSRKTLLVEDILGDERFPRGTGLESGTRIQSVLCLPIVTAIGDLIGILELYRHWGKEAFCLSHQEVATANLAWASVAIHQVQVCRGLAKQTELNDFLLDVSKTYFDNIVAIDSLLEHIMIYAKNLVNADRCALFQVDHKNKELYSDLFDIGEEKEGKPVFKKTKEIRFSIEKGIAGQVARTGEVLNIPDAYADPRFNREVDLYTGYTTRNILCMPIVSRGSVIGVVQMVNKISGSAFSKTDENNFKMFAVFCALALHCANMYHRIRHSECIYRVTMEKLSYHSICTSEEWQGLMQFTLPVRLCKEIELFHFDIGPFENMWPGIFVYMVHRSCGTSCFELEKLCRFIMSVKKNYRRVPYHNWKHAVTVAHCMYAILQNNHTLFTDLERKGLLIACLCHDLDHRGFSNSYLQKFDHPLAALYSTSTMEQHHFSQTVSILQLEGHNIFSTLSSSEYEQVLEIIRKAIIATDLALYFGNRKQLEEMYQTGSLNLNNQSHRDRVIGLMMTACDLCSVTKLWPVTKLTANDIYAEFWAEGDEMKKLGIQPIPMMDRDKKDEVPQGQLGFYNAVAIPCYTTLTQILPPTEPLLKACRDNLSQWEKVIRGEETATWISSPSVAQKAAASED

The structures appear in SMILES notation.

A word on the IC50: it is the concentration at which inhibition is half-maximal. As for `CNC(=O)c1cccc(-c2nccnc2C2CN(c3ccc4ccccc4n3)C2)c1` [Compound 17, N-methyl-3-(3-(1-(quinolin-2-yl)azetidin-3-yl)pyrazin-2-yl)benzamide, reference compound], the half-inhibitory concentration (IC50) came out at 2 nM.

The values above are taken from US8691986B2, “Azetidine and piperidine compounds useful as PDE10 inhibitors” (Amgen Inc., priority 2012, dated 2014).
